Biological target: PLCβ2 (2–803 AA) (UniProt Q00722)

## geranylgeranylated Rac2 (GG-Rac2) (from UniProt P15153 1-192) (natural protein)
  PLC activity in the cell-free system (release of IP3 from DOPE: PtdIns(4,5)P2/[3H]-PtdIns(4,5)P2 vesicles, 300 nM free Ca2+, 30 °C, 45 min) with GG-Rac2 and GTPγS, against GG-Rac2 and GDP: 3 fold

Reference: publication PMC4525138
